Biological target: T1, PfDHODH (dihydroorotate dehydrogenase) (Plasmodium falciparum, UniProt Q08210)
T1 construct: gene PFF0160c; amino acids 169–569
Test: DCIP reduction enzyme assay with recombinant PfDHODH
Assay type: biochemical

The chains behind the UniProt entries cited, without tags or fusion partners. Residues count along the entry.
UniProt Q08210, 169-569: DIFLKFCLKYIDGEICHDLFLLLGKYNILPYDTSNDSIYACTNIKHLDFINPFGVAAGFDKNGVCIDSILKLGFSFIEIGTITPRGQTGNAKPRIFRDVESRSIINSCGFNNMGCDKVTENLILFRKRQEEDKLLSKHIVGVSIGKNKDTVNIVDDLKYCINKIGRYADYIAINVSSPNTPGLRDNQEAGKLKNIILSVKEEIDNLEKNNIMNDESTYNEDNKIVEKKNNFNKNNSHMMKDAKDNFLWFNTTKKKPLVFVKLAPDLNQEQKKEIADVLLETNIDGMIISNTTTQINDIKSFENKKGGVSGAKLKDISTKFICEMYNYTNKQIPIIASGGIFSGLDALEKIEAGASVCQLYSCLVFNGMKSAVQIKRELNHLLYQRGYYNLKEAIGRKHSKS

## Cc1cc(Nc2ccc3ccccc3c2)n2ncnc2n1 [DSM-1]
  IC50: 441 nM

Source: article PMC5118696, “Identification of inhibitors that dually target the new permeability pathway and dihydroorotate dehydrogenase in the blood stage of Plasmodium falciparum” (Scientific Reports, 2016)
